For three molecules, Activity results are on record in ChEMBL document CHEMBL3102846 (Eur J Med Chem, 2014).

For the data set, the system named is HEK293T (human). As to the kind of experiment: Cytotoxicity against human U2OS cells at dual luciferase reporter gene assay EC50 after 24 hrs by MTS assay.

`O=C(/C=C/c1ccc(O)cc1)/C=C/c1ccc(O)cc1`: the Activity came to 99.2%. With `O=C1/C(=C/c2ccc(O)cc2)CCC/C1=C\c1ccc(O)cc1`, the Activity worked out at 105.9%. `COc1ccc(/C=C2\CC/C(=C\c3ccc(OC)c(OC)c3)C2=O)cc1OC` came in with an Activity of 40%.
